Reference: patent EP1120414A1, “DISUBSTITUTED MALEIMIDE COMPOUNDS AND MEDICINAL UTILIZATION THEREOF” (Japan Tobacco Inc., priority 1998, dated 2000)

Protein sequences, listed by entry. Tags and fused reporters are not part of them. Chains listed by the source or under a name are the forms on record and can include a tag or linker.
UniProt P05771, other isoform, or with tags, fused parts or gaps: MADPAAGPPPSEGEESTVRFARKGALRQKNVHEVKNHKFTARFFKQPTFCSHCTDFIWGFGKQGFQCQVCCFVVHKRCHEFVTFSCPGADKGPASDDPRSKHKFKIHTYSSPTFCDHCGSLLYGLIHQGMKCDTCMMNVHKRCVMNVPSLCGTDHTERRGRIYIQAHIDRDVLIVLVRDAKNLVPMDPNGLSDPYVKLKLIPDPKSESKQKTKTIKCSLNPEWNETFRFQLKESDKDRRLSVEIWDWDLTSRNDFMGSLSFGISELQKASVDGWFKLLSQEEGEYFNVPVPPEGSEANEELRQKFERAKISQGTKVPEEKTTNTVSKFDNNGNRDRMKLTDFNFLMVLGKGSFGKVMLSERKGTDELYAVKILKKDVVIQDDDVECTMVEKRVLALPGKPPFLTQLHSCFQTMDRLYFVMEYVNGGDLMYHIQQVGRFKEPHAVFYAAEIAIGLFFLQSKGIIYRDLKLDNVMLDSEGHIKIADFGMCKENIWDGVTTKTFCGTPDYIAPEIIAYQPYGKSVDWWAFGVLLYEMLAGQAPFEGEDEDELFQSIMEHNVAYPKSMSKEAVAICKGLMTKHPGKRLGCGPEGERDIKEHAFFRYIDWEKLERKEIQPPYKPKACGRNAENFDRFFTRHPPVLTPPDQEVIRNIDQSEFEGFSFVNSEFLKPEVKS

Legend:
PKC α = molecular target: T1, PKC α (Homo sapiens, UniProt P17252); assay: PKC enzyme assay (BIOTRAK Protein kinase C enzyme assay system, 32P-ATP phosphorylation of peptide […]); assay type: biochemical
T1 construct: purchased CALBIOCHEM
Protocol: As the reagent for enzyme assay, BIOTRAK Protein kinase C enzyme assay system (hereinafter the system, Amersham), and as the PKC enzyme standard product, Protein Kinase C, Human Recombinant (CALBIOCHEM) were purchased and used in the assay. A substrate mixture was prepared by mixing calcium buffer (12 mM calcium acetate, 50 mM Tris/HCl pH 7.5, 0.05% (w/v) sodium azide), Lipid (0.3 mg/ml La-phosphatidyl-L-serine, […] phorbol 12-myristate 13-acetate, 50 mM Tris/HCl pH 7.5, 0.05% (w/v) sodium azide), peptide buffer (900 µM peptide […]), 50 mM Tris/HCl pH 7.5, 0.05% (w/v) sodium azide), DTT buffer (30 mM dithiothreitol, 50 mM Tris/HCl pH 7.5, 0.05% (w/v) sodium azide), and magnesium ATP buffer (1.2 mM ATP, […] pH 7.4, 72 mM magnesium chloride) all attached to the system in a ratio of 1:1:1:1:0.8 and adding [ y -32P]ATP (Amersham, cat. […] The reaction terminator (300 mM orthophosphoric acid containing carmosine red) attached to the system was added in the amount equivalent to the substrate mixture to end the reaction, and the reaction mixture was spotted on a phosphocellulose paper (Whatman, P-81), washed twice with 75 mM orthophosphoric acid and assayed for radioactivity by BAS2000 (Fuji film).
(§1) The ratio of the radioactivity of the addition of the test substance to the addition of DMSO was determined, and IC50 was calculated from inhibition at each concentration.

PKC β II = molecular target: T2, PKC β II (Homo sapiens, UniProt P05771); assay: as above; assay type: biochemical; settings: IC50 PKC α / IC50 PKC β II
T2 construct: purchased CALBIOCHEM
Source text: The method for determining the PKC inhibitory activity of the compound of the present invention is explained in the following. Inasmuch as PKCβII is present in greater number in intravascular cells than PKCβI, PKCβII was mainly used here to test the enzyme activity.
As the reagent for enzyme assay, BIOTRAK Protein kinase C enzyme assay system (hereinafter the system, Amersham), and as the PKC enzyme standard product, Protein Kinase C, Human Recombinant (CALBIOCHEM) were purchased and used in the assay. […] The reaction terminator (300 mM orthophosphoric acid containing carmosine red) attached to the system was added in the amount equivalent to the substrate mixture to end the reaction, and the reaction mixture was spotted on a phosphocellulose paper (Whatman, P-81), washed twice with 75 mM orthophosphoric acid and assayed for radioactivity by BAS2000 (Fuji film).
as §1

`O=C1NC(=O)C(c2cn(CCCN3CCCCCC3)c3ccccc23)=C1Nc1ccccc1` [Example 2-23, 3-[1-(3-azacycloheptan-1-ylpropyl)-1H-indol-3-yl]-4-(phenylamino)-1H-pyrrole-2,5-dione] was tested, and the IC50 (PKC α) was 399 nM and the “Ratio α/β” value (PKC β II) was 40.
